Experimental findings from publication PMC12261228 (ACS Pharmacology & Translational Science, 2025) are described below.

The subject of one experiment is CEM-DNR. Kind of experiment: MTS cytotoxicity assay, 72 h. In kind it is cell-based. Conditions: read-out: IC50 CEM-DNR, daunorubicin-resistant, 3-day incubation, mean ± SD. In general terms: Tetrazolium dyes change colour on reduction, which living cells bring about.
In another experiment the test system is K562-TAX. Kind of experiment: MTS cytotoxicity assay, 72 h. In kind it is cell-based. Conditions: read-out: IC50 K562-TAX, paclitaxel-resistant, 3-day incubation, mean ± SD.
Another experiment deals with panel of cell lines. As to conditions: for RI (resistance index): (IC50 of CEM-DNR, K562-TAX)/(IC50 of CCRF-CEM, K562); for SI (selectivity index): (mean IC50 of BJ and MRC-5)/(mean IC50 of CCRF-CEM, K562, HCT116, HCT116p53–/–, U2OS).

SMILES strings stand for the structures. Bounds are passed on as bounds.

`COc1cc2c(c(OC)c1OC)-c1ccc(OC)c(=O)cc1[C@@H](n1cc(CCCC3=C4C(C)=CC(C)=[N+]4[B-](F)(F)n4c(C)cc(C)c43)nn1)CC2` [CB4]: the IC50 with CEM-DNR was 360 nM. The half-maximal inhibitory concentration (IC50) in the experiment on K562-TAX was found to be 190 nM. In the experiment with panel of cell lines, the “RI (resistance index)” value is 5.05 and the SI (selectivity index) is over 533.
For the molecule `COc1cc(C2=C3C(C)=CC(C)=[N+]3[B-](F)(F)n3c(C)cc(C)c32)ccc1OCc1cn([C@H]2CCc3cc(OC)c(OC)c(OC)c3-c3ccc(OC)c(=O)cc32)nn1` [CB6], the concentration for half-maximal inhibition (IC50) in the experiment on CEM-DNR turned out to be 500 nM. For the same molecule, in the experiment with panel of cell lines, the “RI (resistance index)” value is recorded as 5.30 and the SI (selectivity index) is over 172.

What is called IC50 is the midpoint of a concentration-inhibition curve.
